{
  "sequences": {"note": "By UniProt entry, the sequences of proteins in these tests, tags left out. Residues count along the entry.", "UniProt Q6P988, 81-451 C330S limits assumed": "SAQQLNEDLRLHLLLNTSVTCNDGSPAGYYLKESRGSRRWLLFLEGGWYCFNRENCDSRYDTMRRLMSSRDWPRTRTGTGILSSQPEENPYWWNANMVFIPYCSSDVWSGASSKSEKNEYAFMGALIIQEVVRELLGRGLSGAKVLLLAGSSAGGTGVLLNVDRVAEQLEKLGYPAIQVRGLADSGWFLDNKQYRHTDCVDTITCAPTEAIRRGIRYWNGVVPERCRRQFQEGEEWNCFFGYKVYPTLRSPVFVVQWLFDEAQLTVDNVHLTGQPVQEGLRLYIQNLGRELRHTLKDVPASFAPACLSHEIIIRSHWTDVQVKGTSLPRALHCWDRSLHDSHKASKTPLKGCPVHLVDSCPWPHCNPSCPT"},
  "source": "paper PMC9264368",
  "about": "“Structural Analysis and Development of Notum Fragment Screening Hits” (ACS Chemical Neuroscience, 2022)",
  "data": [
    {"biological_target": "Notum (Homo sapiens, UniProt Q6P988, C330S)", "units": {"IC50": "µM"}, "values": [
      {"smiles": "c1ccc(-c2cc[nH]n2)cc1", "IC50": 170},
      {"smiles": "c1ccc(CNCc2ccc3c(c2)OCO3)cc1", "IC50": 250},
      {"smiles": "CN(Cc1ccc2c(c1)OCO2)Cc1ccccn1", "IC50": 710},
      {"smiles": "Clc1cccc(-c2cc[nH]n2)c1", "IC50": 19},
      {"smiles": "Clc1ccc(-c2cc[nH]n2)cc1Cl", "IC50": 5.4},
      {"smiles": "c1cncc(CNCc2ccc3c(c2)OCO3)c1", "IC50": "> 1000"},
      {"smiles": "Cc1ccc(CNCc2ccc3c(c2)OCO3)o1", "IC50": 460},
      {"smiles": "Fc1ccc(-c2cc[nH]n2)cc1F", "IC50": 16},
      {"smiles": "O=C(NCc1ccc2c(c1)OCO2)c1ccccn1", "IC50": 840},
      {"smiles": "Cc1ccccc1CNCc1ccc2c(c1)OCO2", "IC50": 120},
      {"smiles": "Cc1ccccc1CN(C)Cc1ccc2c(c1)OCO2", "IC50": 560},
      {"smiles": "O=C(NCc1ccc2c(c1)OCO2)c1ccc(Cl)c(C(F)(F)F)c1", "IC50": 51}
    ]}
  ]
}
